Assay results as given in patent US20130084328A1, “METHYLATED CODING AND NON-CODING RNA GENES AS DIAGNOSTIC AND THERAPEUTIC TOOLS FOR HUMAN MELANOMA” (Sanford-Burnham Medical Research Institute, priority 2011, published 2013).

Tested on: WM1552C melanoma cells
Experiment: RNA deep sequencing (SOLiD) of WM1552C/34b versus WM1552C/VO cells
Assay type: cell-based, human
Details: BFAST; WM1552C/34b vs WM1552C/VO
Description: Oligonucleotides complimentary to the hsa-miR-34b genomic sequences were constructed (miR-34b pre For-GTGCTCGGTT TGTAGGCAGT G [SEQ ID NO:25] and miR-34b pre Rev-GTGCCTTGTT TTGATGGCAG TG [SEQ ID NO:26]), containing HindIII and BamHI sites on their respective 5′ and 3′ ends, then amplified from melanocyte genomic DNA (Amplitaq Gold, Applied Biosystems/Life Technologies). The product was then TOPO cloned into pCR4-TOPO (Invitrogen/Life Technologies). The vector construct was sequenced and the pre-hsa-miR-34b fragment was sub-cloned into pcDNA4/H1-3TetR using the HindIII and BamHI sites to create pcDNA4/H1-3TetR/miR-34b. […] The following morning, cells were selected with 600 μg/mL Zeocin for the following 15 days.
Total RNA was isolated from samples using Trizol (Invitrogen/Life Technologies) and fragmented through RNase III digestion. SOLiD sequence protocols (Applied Biosytems/Life Technologies) require reverse transcription of these RNAs, priming with a ligated primer, and the resulting cDNA amplified and size-selected in a 6% urea gel with the help of SYBR Gold dye for sequencing. The sequence libraries (150-200 bp size fragments) were further amplified using a bead-based emulsion PCR optimized to physically isolate a single bead/cDNA molecule. This enables massively parallel amplification of monoclonal DNA species. For RNA-seq experiments, we deposited approximately 90 million beads per sample onto a glass slide and analyzed them using a ligation-based sequencing technology. Data were mapped to the human genome using both BioScope and BFAST software packages and analyzed at the Burnham Institute Bioinformatics core facility.
Mapping of the SOLiD sequence data was performed using the standard pipeline of Blat-like Fast Accurate Search Tool (BFAST) (Horner et al., 2009) against the human genome (hg19) (Rhead et al., 2010). […] It then hashes the reads to a number of genomic locations based on the indices and performs detailed alignments between the reads and the genomic sequence at the hashed locations. The final output of BFAST contains the mapped genomic locations of each read and the qualities (represented via alignment scores) of the mappings.
The expression level of a gene can be calculated based on the mapping results. The BFAST algorithm successfully mapped ˜63% of the reads to the reference genome; among the mapped reads, ˜89% were uniquely mapped. Only uniquely mapped reads were considered to eliminate possible noise. For each gene (from the RefSeq annotation for hg19), a score was calculated as reads per kilobase of sequence per million reads (RPKM) (Mortazavi et al., 2008).
The predefined mapping protocol for SOLiD sequencing on BioScope 1.0 was also used. BioScope was able to map ˜63% of the reads to the reference genome, ˜83% uniquely. The output was then fed into the Partek Genomics Suite for analysis. Again, an RPKM score was computed for each gene.
The results of the two analysis pipelines were compared to arrive at a consensus. […] For this calculation, a pseudo-count of 1.0 was used to overcome divide by zero errors and to normalize the data at low RPKM values. […] The order of the genes was then directed by the corroborated fold change. For the open reading frames, a cutoff was established with a minimum fold change of +/−1.5 (1.5 for miRNAs, −1.2 for target genes). The transcript delta was also obtained; this was used to select genes for further testing, this cutoff was set at 10.0 for open reading frames (1.3 for miRNAs, −2.0 for target genes). Of particular interest are the target genes of miR-34b.

With “miR-34b: nucleic acid exemplified by SEQ ID NO:2 (CAAUCACUAACUCCACUGCCAU); stably expressed in WM1552C from pcDNA4/H1-3TetR/miR-34b (WM1552C/34b) (CAAUCACUAACUCCACUGCCAU)” the “ACAN Fold Change” value was 2.20, the “ACAN Transcript Difference” value was 18.43 and the “ALCAM Fold Change” value was −2.31. For the same substance, the “ALCAM Transcript Difference” value was 10.22, the “AP2M1 Fold Change” value was −1.84 and the “AP2M1 Transcript Difference” value was 23.31. The “CADM4 Fold Change” value was 1.79, the “CADM4 Transcript Difference” value was 10.14 and the “CAVI Fold Change” value was −1.52. The “CAVI Transcript Difference” value was 15.33, the “COL6A1 Fold Change” value was −1.64 and the “COL6A1 Transcript Difference” value was 10.43. For the same substance, the “COL9A3 Fold Change” value was 1.78, the “COL9A3 Transcript Difference” value was 13.40 and the “CRIMI Fold Change” value was −1.69. For the same substance, the “CRIMI Transcript Difference” value was 11.42, the “CXCL1 Fold Change” value was −1.55 and the “CXCL1 Transcript Difference” value was 136.23. For the same substance, the “CYR61 Fold Change” value was −1.60, the “CYR61 Transcript Difference” value was 25.31 and the “DKK1 Fold Change” value was −9.27. For the same substance, the “DKK1 Transcript Difference” value was 15.87, the “FASN Fold Change” value was 1.72 and the “FASN Transcript Difference” value was 15.03. For the same substance, the “FBNI Fold Change” value was −2.54, the “FBNI Transcript Difference” value was 20.45 and the “FCRLA Fold Change” value was 2.84. For the same substance, the “FCRLA Transcript Difference” value was 14.95, the “FSTL1 Fold Change” value was −1.76 and the “FSTL1 Transcript Difference” value was 21.59. The “HLA-DRA Fold Change” value was 1.76, the “HLA-DRA Transcript Difference” value was 20.43 and the “HLA-DRBI Fold Change” value was 2.27. For the same substance, the “HLA-DRBI Transcript Difference” value was 15.71, the “ID3 Fold Change” value was −2.63 and the “ID3 Transcript Difference” value was 16.00. The “IGFBP2 Fold Change” value was 1.75, the “IGFBP2 Transcript Difference” value was 46.90 and the “IGFBP7 Fold Change” value was −2.12. The “IGFBP7 Transcript Difference” value was 43.32, the “IL1B Fold Change” value was −8.10 and the “IL1B Transcript Difference” value was 185.64. For the same substance, the “IL6 Fold Change” value was −1.62, the “IL6 Transcript Difference” value was 11.43 and the “INHBA Fold Change” value was −8.84. The “INHBA Transcript Difference” value was 9.96, the “ITGA3 Fold Change” value was −3.42 and the “ITGA3 Transcript Difference” value was 21.36. The “ITGB5 Fold Change” value was −1.67, the “ITGB5 Transcript Difference” value was 10.36 and the “KLF9 Fold Change” value was 1.60. For the same substance, the “KLF9 Transcript Difference” value was 12.71, the “LOXL2 Fold Change” value was −1.79 and the “LOXL2 Transcript Difference” value was 52.37. The “LYPD1 Fold Change” value was −3.98, the “LYPD1 Transcript Difference” value was 16.85 and the “MARCKSLI Fold Change” value was 1.68. The “MARCKSLI Transcript Difference” value was 10.96, the “MIA Fold Change” value was 1.90 and the “MIA Transcript Difference” value was 31.30. The “MIR20B Fold Change” value was 1.50, the “MIR20B Transcript Difference” value was 5.24 and the “MIR34B Fold Change” value was 4.95. For the same substance, the “MIR34B Transcript Difference” value was 3.95, the “MIR134 Fold Change” value was 1.80 and the “MIR134 Transcript Difference” value was 1.42. The “MIR140 Fold Change” value was 2.16, the “MIR140 Transcript Difference” value was 10.76 and the “MIR149 Fold Change” value was 1.91. The “MIR149 Transcript Difference” value was 5.56, the “MIR154 Fold Change” value was 1.83 and the “MIR154 Transcript Difference” value was 3.01. The “MIR181D Fold Change” value was 1.55, the “MIR181D Transcript Difference” value was 1.22 and the “MIR199B Fold Change” value was 1.67. For the same substance, the “MIR199B Transcript Difference” value was 3.68, the “MIR301A Fold Change” value was 1.62 and the “MIR301A Transcript Difference” value was 2.25. For the same substance, the “MIR323 Fold Change” value was 2.24, the “MIR323 Transcript Difference” value was 1.78 and the “MIR362 Fold Change” value was 1.82. For the same substance, the “MIR362 Transcript Difference” value was 1.56, the “MIR376A2 Fold Change” value was 2.08 and the “MIR376A2 Transcript Difference” value was 1.14. For the same substance, the “MIR380 Fold Change” value was 2.14, the “MIR380 Transcript Difference” value was 1.14 and the “MIR382 Fold Change” value was 1.95. For the same substance, the “MIR382 Transcript Difference” value was 1.12, the “MIR409 Fold Change” value was 5.11 and the “MIR409 Transcript Difference” value was 7.38. For the same substance, the “MIR410 Fold Change” value was 2.01, the “MIR410 Transcript Difference” value was 2.38 and the “MIR425 Fold Change” value was 1.55. The “MIR425 Transcript Difference” value was 1.66, the “MIR431 Fold Change” value was 1.75 and the “MIR431 Transcript Difference” value was 3.13. The “MIR432 Fold Change” value was 1.78, the “MIR432 Transcript Difference” value was 3.76 and the “MIR453 Fold Change” value was 2.93. For the same substance, the “MIR453 Transcript Difference” value was 2.27, the “MIR487A Fold Change” value was 2.06 and the “MIR487A Transcript Difference” value was 1.56. For the same substance, the “MIR494 Fold Change” value was 2.08, the “MIR494 Transcript Difference” value was 1.75 and the “MIR495 Fold Change” value was 2.94. The “MIR495 Transcript Difference” value was 3.47, the “MIR496 Fold Change” value was 1.60 and the “MIR496 Transcript Difference” value was 2.25. The “MIR501 Fold Change” value was 2.26, the “MIR501 Transcript Difference” value was 1.26 and the “MIR518A2 Fold Change” value was 1.88. The “MIR518A2 Transcript Difference” value was 1.16, the “MIR656 Fold Change” value was 1.97 and the “MIR656 Transcript Difference” value was 1.08. The “MIR660 Fold Change” value was 3.11, the “MIR660 Transcript Difference” value was 5.07 and the “MIR663B Fold Change” value was 1.99. For the same substance, the “MIR663B Transcript Difference” value was 27.73, the “MIR663 Fold Change” value was 1.71 and the “MIR663 Transcript Difference” value was 29.24. For the same substance, the “MIR1197 Fold Change” value was 1.58, the “MIR1197 Transcript Difference” value was 1.06 and the “MIR1205 Fold Change” value was 1.72. For the same substance, the “MIR1205 Transcript Difference” value was 1.06, the “MIR1312 Fold Change” value was 1.58 and the “MIR1312 Transcript Difference” value was 2.73. For the same substance, the “MMP14 Fold Change” value was −1.54, the “MMP14 Transcript Difference” value was 11.92 and the “MMPS Fold Change” value was 2.86. For the same substance, the “MMPS Transcript Difference” value was 10.55, the “NT5E Fold Change” value was 1.53 and the “NT5E Transcript Difference” value was 15.25. For the same substance, the “PDE1C Fold Change” value was −1.67, the “PDE1C Transcript Difference” value was 13.00 and the “PTTGHP Fold Change” value was −1.73. The “PTTGHP Transcript Difference” value was 16.78, the “RCANI Fold Change” value was 2.34 and the “RCANI Transcript Difference” value was 43.98. For the same substance, the “RPL24 Fold Change” value was 1.79, the “RPL24 Transcript Difference” value was 12.58 and the “RPL37A Fold Change” value was 1.67. For the same substance, the “RPL37A Transcript Difference” value was 25.39, the “S100A16 Fold Change” value was −2.84 and the “S100A16 Transcript Difference” value was 23.09. The “S100B Fold Change” value was 2.35, the “S100B Transcript Difference” value was 59.92 and the “SEMA3C Fold Change” value was −1.61. For the same substance, the “SEMA3C Transcript Difference” value was 12.41, the “SERPINA3 Fold Change” value was 2.45 and the “SERPINA3 Transcript Difference” value was 10.54. For the same substance, the “SERPINB2 Fold Change” value was −3.64, the “SERPINB2 Transcript Difference” value was 14.77 and the “SRGN Fold Change” value was −5.67. For the same substance, the “SRGN Transcript Difference” value was 14.98, the “STC1 Fold Change” value was −21.23 and the “STC1 Transcript Difference” value was 10.85. The “STC2 Fold Change” value was −4.48, the “STC2 Transcript Difference” value was 11.00 and the “TGFBI Fold Change” value was −1.60. The “TGFBI Transcript Difference” value was 19.23, the “THBS2 Fold Change” value was 1.53 and the “THBS2 Transcript Difference” value was 100.99. For the same substance, the “TNFRSF21 Fold Change” value was −3.92, the “TNFRSF21 Transcript Difference” value was 22.18 and the “TNS3 Fold Change” value was −1.57. The “TNS3 Transcript Difference” value was 32.33, the “TXNIP Fold Change” value was −2.34 and the “TXNIP Transcript Difference” value was 26.14. The “UGCG Fold Change” value was −1.76, the “UGCG Transcript Difference” value was 14.74 and the “WNT5A Fold Change” value was −2.19. The “WNT5A Transcript Difference” value was 16.19.
